The assay relates to V1 receptor. The assay is described as follows: V1 antagonism in conscious rats (oral administration). It is filed as in vivo, rat. Particulars: 10 mg/kg oral, AVP 30 mU/kg i.v.

In the case of `CC(=O)NCCCOc1ccc(C(=O)N2CCC(N3C(=O)CCc4ccccc43)CC2)cc1`, the “Pressure increase by AVP (diastolic blood pressure, pre-dose increase = 100%)” value (4 hours after administration) amounted to 100% and the “Pressure increase by AVP (diastolic blood pressure, pre-dose increase = 100%)” value (only from 30 minutes to 1 hour after administration) is on record as ≤ 50%.

(Values after patent US5723606A, “Condensed benzazepine derivative and pharmaceutical composition thereof” (priority 1993, dated 1998).)
